From patent US6867200B1, “(Hetero)aryl-bicyclic heteroaryl derivatives, their preparation and their use as protease inhibitors” (Axys Pharmaceuticals, Inc., priority 1998, dated 2005)

Assays:
[1] = biological target: T1, human Urokinase (Homo sapiens, UniProt P00749); assay: Urokinase (uPA) inhibition, chromogenic substrate hydrolysis, Ki app.; format: biochemical
T1 construct: purchased American Diagnostica, CT, USA

[2] = biological target: T2, human Factor Xa (Homo sapiens, UniProt P00742); assay: Factor Xa inhibition, chromogenic substrate hydrolysis, Ki app.; format: biochemical
T2 construct: purified human Factor Xa; purchased Haematologic Technologies, VT, USA

pKi [1]	pKi [2]	Compound
6.29		N=C(N)c1ccc2nc(-c3cccc(-c4ccccc4)c3O)[nH]c2c1 [Ex. 110, 2-(2-Hydroxy-biphenyl-3-yl)-3H-benzoimidazole-5-carboxamidine]
5.60	7.48	N=C(N)c1cc2cc(-c3cccc(-c4ccccc4)c3O)[nH]c2cc1F [compound 877]

pKi: −log10 of the molar value.
